This note sets out measurements from BindingDB's records for patent US9670214 (Dana-Farber Cancer Institute, 2017).

Chains of the proteins cited; added tags and fusions are not shown. A line that says so, or that is headed by a name, gives the form on record, which may keep a tag or linker.
UniProt A9UEZ6, as listed by the source T818I: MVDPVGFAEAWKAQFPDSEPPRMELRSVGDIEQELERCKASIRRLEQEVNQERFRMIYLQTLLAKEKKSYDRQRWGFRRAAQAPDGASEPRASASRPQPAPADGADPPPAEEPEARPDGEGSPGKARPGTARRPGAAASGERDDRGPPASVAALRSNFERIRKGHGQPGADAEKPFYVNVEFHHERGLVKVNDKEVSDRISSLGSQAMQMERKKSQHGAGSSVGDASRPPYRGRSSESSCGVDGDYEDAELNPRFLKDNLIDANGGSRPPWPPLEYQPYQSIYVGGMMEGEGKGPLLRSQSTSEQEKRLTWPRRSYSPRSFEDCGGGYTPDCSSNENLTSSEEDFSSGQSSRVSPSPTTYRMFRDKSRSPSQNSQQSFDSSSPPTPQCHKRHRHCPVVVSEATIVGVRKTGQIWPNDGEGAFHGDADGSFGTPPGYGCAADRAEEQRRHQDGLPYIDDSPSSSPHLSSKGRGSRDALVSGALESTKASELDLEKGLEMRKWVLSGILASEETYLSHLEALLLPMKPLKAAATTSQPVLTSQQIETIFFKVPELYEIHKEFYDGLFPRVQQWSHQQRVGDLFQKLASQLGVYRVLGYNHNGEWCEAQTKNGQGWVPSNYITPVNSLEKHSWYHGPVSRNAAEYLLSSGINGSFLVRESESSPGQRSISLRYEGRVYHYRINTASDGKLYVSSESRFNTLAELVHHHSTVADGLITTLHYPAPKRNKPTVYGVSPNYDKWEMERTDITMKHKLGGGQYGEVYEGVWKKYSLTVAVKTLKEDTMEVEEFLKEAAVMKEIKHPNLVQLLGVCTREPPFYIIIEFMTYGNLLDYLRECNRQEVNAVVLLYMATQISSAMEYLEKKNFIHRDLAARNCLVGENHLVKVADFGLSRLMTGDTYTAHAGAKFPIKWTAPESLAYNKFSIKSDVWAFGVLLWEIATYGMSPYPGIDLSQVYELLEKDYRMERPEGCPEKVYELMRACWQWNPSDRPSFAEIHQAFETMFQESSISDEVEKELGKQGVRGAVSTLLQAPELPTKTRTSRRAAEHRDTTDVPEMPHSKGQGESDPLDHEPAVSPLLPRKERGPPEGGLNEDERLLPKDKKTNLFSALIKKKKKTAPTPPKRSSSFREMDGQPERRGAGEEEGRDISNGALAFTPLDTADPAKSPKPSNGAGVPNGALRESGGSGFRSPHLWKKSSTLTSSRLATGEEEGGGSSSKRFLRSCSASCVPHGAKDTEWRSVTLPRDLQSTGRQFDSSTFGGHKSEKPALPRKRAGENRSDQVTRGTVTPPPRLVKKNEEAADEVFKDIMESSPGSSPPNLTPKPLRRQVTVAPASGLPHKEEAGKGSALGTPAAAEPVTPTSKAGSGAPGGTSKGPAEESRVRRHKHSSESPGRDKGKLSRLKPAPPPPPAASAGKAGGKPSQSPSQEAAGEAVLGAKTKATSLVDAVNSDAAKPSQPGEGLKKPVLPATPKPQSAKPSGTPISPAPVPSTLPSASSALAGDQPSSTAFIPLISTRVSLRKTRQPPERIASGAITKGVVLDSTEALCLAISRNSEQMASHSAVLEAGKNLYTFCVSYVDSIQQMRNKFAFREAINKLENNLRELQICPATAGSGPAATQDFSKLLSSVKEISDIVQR

The IC50 is the midpoint of a concentration-inhibition curve. The low end stands for greater potency in that assay, the high end for weaker potency in that assay.

This assay deals with Non-specific protein-tyrosine kinase [T818I] (Homo sapiens, UniProt A9UEZ6, T818I). As to the kind of experiment: Kinase Assay. Conditions: pH 7.5. The source says: Recombinant abl was expressed in Sf9 insect cells and purified as described above. Bcr-abl immune complexes were obtained with Ab-3 anti-abl monoclonal antibody (Oncogene Science) from Ba/F3.p210 lysates as previously described. […] (Calbiochem buffer and protocol). The reaction was stopped by addition of Laemmli buffer and the proteins were resolved by SDS-PAGE in a 4-20% gel. The phosphoproteins were visualized by autoradiography and the autophosphorylation quantitated using a phosphoimager (STORM, Molecular Devices).

Molecules are shown by their SMILES. A value given as a limit tells only on which side of the number the result lay.

Turning to `COc1ccc(Cn2ccc3c(Nc4ccc(OC(F)(F)F)cc4)ncnc32)cc1` [US9670214, TABLE 12.6], the IC50 is > 10 µM.
The result for `FC(F)(F)Oc1ccc(Nc2cc(-c3cc(NCCN4CCOCC4)ncn3)ncn2)cc1` [US9670214, TABLE 16.51] reads > 10 µM.
